The values that follow come from PubChem BioAssay AID540263 (National Center for Advancing Translational Sciences (NCATS), 2011).

Sequences of proteins named here, by UniProt entry; tags and fusion partners are left off.
UniProt Q14974, whole entry: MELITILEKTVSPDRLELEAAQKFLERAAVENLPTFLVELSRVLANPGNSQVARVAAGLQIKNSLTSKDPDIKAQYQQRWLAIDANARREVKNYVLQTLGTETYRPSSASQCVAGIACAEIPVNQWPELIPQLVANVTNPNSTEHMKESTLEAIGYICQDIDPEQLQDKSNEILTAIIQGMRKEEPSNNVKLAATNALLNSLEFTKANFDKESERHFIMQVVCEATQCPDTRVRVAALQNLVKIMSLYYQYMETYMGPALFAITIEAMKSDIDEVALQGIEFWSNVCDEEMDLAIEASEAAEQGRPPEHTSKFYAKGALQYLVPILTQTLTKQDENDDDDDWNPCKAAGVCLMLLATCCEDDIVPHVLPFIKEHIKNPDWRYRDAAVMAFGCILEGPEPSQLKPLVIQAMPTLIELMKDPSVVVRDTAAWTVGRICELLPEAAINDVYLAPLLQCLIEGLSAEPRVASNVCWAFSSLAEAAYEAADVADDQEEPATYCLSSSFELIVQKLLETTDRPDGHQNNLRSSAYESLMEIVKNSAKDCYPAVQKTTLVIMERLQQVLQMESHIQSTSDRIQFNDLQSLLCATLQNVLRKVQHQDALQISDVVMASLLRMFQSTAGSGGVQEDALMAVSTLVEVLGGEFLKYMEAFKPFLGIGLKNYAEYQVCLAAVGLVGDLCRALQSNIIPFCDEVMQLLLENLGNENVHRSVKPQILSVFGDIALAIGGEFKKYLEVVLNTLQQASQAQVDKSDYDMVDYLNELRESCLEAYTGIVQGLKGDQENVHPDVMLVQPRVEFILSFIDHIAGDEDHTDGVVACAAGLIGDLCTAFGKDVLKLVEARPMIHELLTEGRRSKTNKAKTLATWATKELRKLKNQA
UniProt O95149, whole entry partner: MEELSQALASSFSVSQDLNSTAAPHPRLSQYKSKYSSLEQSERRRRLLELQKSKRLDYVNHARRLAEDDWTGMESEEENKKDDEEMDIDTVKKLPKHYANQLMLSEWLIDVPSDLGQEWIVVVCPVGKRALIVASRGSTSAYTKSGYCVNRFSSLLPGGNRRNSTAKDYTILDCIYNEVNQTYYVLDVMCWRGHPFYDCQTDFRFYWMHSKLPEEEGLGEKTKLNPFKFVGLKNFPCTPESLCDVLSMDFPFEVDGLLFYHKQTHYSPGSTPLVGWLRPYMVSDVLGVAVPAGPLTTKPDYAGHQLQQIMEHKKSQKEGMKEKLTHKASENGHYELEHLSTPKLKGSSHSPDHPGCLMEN

This is one part of the list. Inconclusive results are not listed. Calls of active or inactive are those of the source. Calls follow the shape of the full dose curve.

In this test the target is Importin subunit beta-1 (Homo sapiens) (UniProt Q14974). Kind of test: qHTS Assay for Inhibitors of Rango (Ran-regulated importin-beta cargo) - Importin beta complex formation.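 Also: 0% = DMSO wells and 100% = buffer wells lacking importin beta; nearly all actives have a fitted effect of over 15% in size.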 The note with it: Rango CFP/YFP FRET sensor + importin beta, 45 min; at 92.2 µM (top of the series). An excerpt: NIH Molecular Libraries Probe Production Centers Network [MLPCN] NIH Chemical Genomics Center [NCGC] MLPCN Grant: R03 MH090808-01A1 Assay Submitter (PI): Petr Kalab NCGC Assay Overview: The small GTPase Ran regulates transport of macromolecules between the nucleus and the cytoplasm (nuclear transport) and has important functions in mitotic spindle assembly, nuclear envelope (NE) formation and nuclear pore complex (NPC) assembly. RanGTP gradient is thought to promote spindle assembly by providing a spatial clue to microtubule nucleation and Aurora A activation. Because the localized release and binding of importin alpha cargo relays this spatial clue to SAFs, inhibitors of the Rango - importin beta complex can then be used in further understanding their role in cell cycle specifically in mitosis progression. […] Activation of Aurora A has been linked to different types of cancer and a number of Aurora kinase inhibitors are being developed as potential canter therapeutics therefore, identified inhibitors of this complex could be developed into potential anti-mitotic probes for cancer treatment. Purified recombinant proteins Rango and importin beta were provided by the assay submitter. The assay used a fluorescence resonance energy transfer (FRET) Rango biosensor that contains the IBB of human snurportin 1 flanked by yellow fluorescent protein (EYFP) at the amino terminus and cerulean CFP10 at the carboxy terminus. […] Inhibitors will therefore be identified based on the ability to interfere with the FRET signal decrease. DMSO treated and no importin beta (buffer only) wells were used as negative and positive controls respectively. FRET readings were obtained at two time points. FRET reading prior to importin beta addition (pre-read) were used flag potential compound interference; FRET reading after importin beta addition (post-read) were used to identify inhibitors using the FRET ratio parameter.
NCGC Assay Protocol Summary: Two and a half uL/well of Rango-buffer solution (50 nM Rango, 1x PBS, 1mM DTT, 0.02% Tween-20, 0.1% BSA final concentrations) was dispensed into 1536-well assay plates (Greiner, solid black medium-binding plates) with Aurora Discovery BioRAPTR Flying Reagent Dispenser (FRD; Beckton-Dickenson). Compound solution (23 nL) was transferred to the assay plate using Kalypsys pin tool equipped with a 1536-pin tool and incubated at room temperature for 5 min followed by a FRET pre-read using the PerkinElmer Envision plate reader. Two and a half uL/well of Importin beta - buffer solution (0.125 microM importin beta, 1x PBS, 1mM DTT, 0.02% Tween-20, 0.1% BSA final concentrations) were then added and incubated at room temperature giving a final reaction volume of 5uL. After 45min FRET post-read was obtained via the Envision plate reader using the same optics and settings as the pre-read (CFP/YFP optimized dual optical module D450/D505; excitation mirror CFP 430/24 nm; and emission filters CFP 486/10 nm and YFP 530/10 nm).
For orientation: Quantitative high-throughput screening tests each substance at several concentrations.
As for `O=c1c2cc([N+](=O)[O-])ccc2[nH]c2c([N+](=O)[O-])cc([N+](=O)[O-])cc12`, the inhibition of complex formation is inactive: 4.63%.
With `CCCCCOc1ccc(NP(C)(=O)Oc2ccc(Cl)cc2Cl)cc1` (stereo not drawn) the figure was inactive: 1.87%.
With `CN(C)C(=O)Oc1noc2ccccc12` the figure was inactive: -1.57%; with `O=C(NC1CCS(=O)(=O)C1)NP(=S)(Oc1ccccc1)Oc1ccccc1` (stereo not drawn), inactive: -4.18%; with `CCNC(=S)/N=C(\N)N[N+](=O)[O-]`, inactive: -0.351%.
With `c1ccc(-c2nn[nH]n2)c(-c2nn[nH]n2)c1` the figure was inactive: 4.76%.
For the compound `Cc1ccc(NP(=O)(Oc2cccc(C)c2)Oc2cccc(C)c2)nc1`, the inhibition of complex formation was inactive: 0.99%.
Regarding `O=P1(N(CCCl)CCCl)OCCC2CCCCN21` (stereo not drawn), the inhibition of complex formation was inactive: -2.56%.
Next, `CCOC(=O)c1ccc(NP(C)(=O)Oc2ccc(F)cc2)cc1` (stereo not drawn): inactive: -1.13%.
With `COc1ccc(OP(C)(=O)Nc2ccc(SC(F)(F)F)cc2)cc1` (stereo not drawn) the figure was inactive: 3.49%; with `CC(=O)c1ccc(N2CC2c2ccncc2)cc1` (stereo not drawn), inactive: 1.55%; with `COC(=O)C1(C)COP(=O)(NCc2ccccc2)OC1` (stereo not drawn), inactive: -0.0247%.
With `O=C(OCCN1CCN(CCOCc2ccccc2)CC1)C(O)(c1ccccc1)c1ccccc1` the figure was inactive: 1.09%; with `Cc1ccccc1CN(C)C(=O)COC(=O)C(O)(c1ccccc1)c1ccccc1`, inactive: -1.74%; with `C[C@H]1OP(=O)(Oc2ccccc2)C[C@@H]2O[C@@H]21` (stereo partly drawn), inactive: -1.99%.
For `C[C@@H]1C=CCP(=O)(Oc2ccccc2)O1` (stereo partly drawn), the inhibition of complex formation was inactive: 5.3%.
Next, `CC(=O)Nc1ccc([As](=O)(O)O)c(O)c1`: inactive: -0.128%; `CC(=O)Nc1ccc(Oc2c([N+](=O)[O-])cc([N+](=O)[O-])cc2[N+](=O)[O-])cc1`: inactive: -1.08%; `O=P1(Nc2nc3ccc(Cl)cc3s2)COc2ccccc2O1` (stereo not drawn): inactive: -1.77%.
Next, `CCOc1ccc(C2=NCC(CBr)S2)cc1` (stereo not drawn): inactive: 6.41%; `CCc1cc(O)c([N+](=O)[O-])c(C)c1[N+](=O)[O-]`: inactive: -0.0066%; `CP(=O)(Nc1ccccc1F)Oc1ccccc1` (stereo not drawn): inactive: -4.04%.
Consider `CC(C)(C)C(=O)NC(Sc1ccccc1)C(Cl)(Cl)Cl` (stereo not drawn), for which the inhibition of complex formation was inactive: 2.37%.
On to `CC(C)c1ccc(OP(C)(=O)Nc2ccc(SC(F)(F)F)cc2)cc1` (stereo not drawn), for which the inhibition of complex formation was inactive: -1.11%.
Consider `CP(=O)(Nc1ccc2c(c1)OCCO2)Oc1ccccc1` (stereo not drawn), for which the inhibition of complex formation is inactive: 0.0754%.
As to `Cc1ccccc1NP(C)(=O)Nc1ccccc1C`, the inhibition of complex formation is inactive: 3.75%.
Next, `CP(=O)(Nc1ccc(SC(F)(F)F)cc1)Oc1ccc(F)cc1` (stereo not drawn): inactive: -1.82%; `O=P(Nc1nccs1)(c1ccccc1)c1ccccc1`: inactive: -0.289%; `CC(C)C(=O)NC(Sc1ccccc1)C(Cl)(Cl)Cl` (stereo not drawn): inactive: -5.15%.
Next, `CCOP(C)(=S)SCC(=O)NC(C)(CC)C(=O)O` (stereo not drawn): inactive: -1.66%; `c1nnnn1CCn1cnnn1`: inactive: 2.07%.
Turning to `O=[N+]([O-])c1ncn(CCn2cnc([N+](=O)[O-])n2)n1`, the inhibition of complex formation is inactive: 2.25%.
Take `O=[N+]([O-])c1ccc(OP2(=O)COCCO2)cc1` (stereo not drawn): the inhibition of complex formation is inactive: 3.71%.
With `O=[N+]([O-])c1ccc(O)c(/C=N/Nc2ccc([N+](=O)[O-])cc2[N+](=O)[O-])c1` the figure was inactive: 0.371%; with `O=[As](O)(c1ccccc1)c1ccc(O)cc1`, inactive: 0.432%.
With `Cc1cc(-c2cccc3ccccc23)c(C)cn1.O=[N+]([O-])c1cc([N+](=O)[O-])c(O)c([N+](=O)[O-])c1`, the inhibition of complex formation is inactive: -0.705%.
Take `Cc1c(C(c2ccc3c(c2)OCO3)c2c(C)n(C)n(-c3ccccc3)c2=O)c(=O)n(-c2ccccc2)n1C.O=[N+]([O-])c1cc([N+](=O)[O-])c(O)c([N+](=O)[O-])c1`: the inhibition of complex formation was inactive: -0.484%.
Next, `C(Cc1nn[nH]n1)Cc1nn[nH]n1`: inactive: 3.03%; `Nc1ccc([As](=O)(O)c2ccc([N+](=O)[O-])cc2)cc1`: inactive: 2.01%.
For the compound `O=C(OC1CN2CCC1CC2)c1cccc(Cl)c1` (stereo not drawn), the inhibition of complex formation was inactive: -1.76%.
On to `COc1ccc(OP(C)(=O)Nc2cccc(Br)c2)cc1` (stereo not drawn), for which the inhibition of complex formation was inactive: 3.99%.
Next, `COc1ccc(N)c([N+](=O)[O-])c1[N+](=O)[O-]`: inactive: -5.69%; `CN(C)C1(CNC(=O)c2ccc(Cl)c(S(N)(=O)=O)c2)CCCCC1`: inactive: -1.81%; `O=P(Nc1ccccn1)(c1ccc(Br)cc1)c1ccc(Br)cc1`: inactive: -0.507%.
Turning to `O=P(Nc1nc2ccccc2s1)(c1ccccc1)c1ccccc1`, the inhibition of complex formation was inactive: -5.31%.
Consider `CN(C)CCOC(=O)C(O)(c1ccccc1)C1CCCCC1` (stereo not drawn), for which the inhibition of complex formation is inactive: -1.13%.
As for `C[C@H]1OP(=O)(Oc2ccccc2)[C@H](O)[C@H](O)[C@H]1N=[N+]=[N-]` (stereo partly drawn), the inhibition of complex formation was inactive: -0.35%.
With `COc1ccc(NP(C)(=O)Oc2ccccc2OC)cc1` (stereo not drawn) the figure was inactive: -1.69%.
